The experiment deals with Phosphatidylinositol 4-phosphate 5-kinase type-1 gamma (Homo sapiens) (UniProt O60331). Nature of the experiment: Inhibition of PIP5Kgamma (unknown origin).

Amino acid sequences for entries named in this document (tags omitted). A change or cut given only in a name is not applied to a line headed by its entry.
UniProt O60331: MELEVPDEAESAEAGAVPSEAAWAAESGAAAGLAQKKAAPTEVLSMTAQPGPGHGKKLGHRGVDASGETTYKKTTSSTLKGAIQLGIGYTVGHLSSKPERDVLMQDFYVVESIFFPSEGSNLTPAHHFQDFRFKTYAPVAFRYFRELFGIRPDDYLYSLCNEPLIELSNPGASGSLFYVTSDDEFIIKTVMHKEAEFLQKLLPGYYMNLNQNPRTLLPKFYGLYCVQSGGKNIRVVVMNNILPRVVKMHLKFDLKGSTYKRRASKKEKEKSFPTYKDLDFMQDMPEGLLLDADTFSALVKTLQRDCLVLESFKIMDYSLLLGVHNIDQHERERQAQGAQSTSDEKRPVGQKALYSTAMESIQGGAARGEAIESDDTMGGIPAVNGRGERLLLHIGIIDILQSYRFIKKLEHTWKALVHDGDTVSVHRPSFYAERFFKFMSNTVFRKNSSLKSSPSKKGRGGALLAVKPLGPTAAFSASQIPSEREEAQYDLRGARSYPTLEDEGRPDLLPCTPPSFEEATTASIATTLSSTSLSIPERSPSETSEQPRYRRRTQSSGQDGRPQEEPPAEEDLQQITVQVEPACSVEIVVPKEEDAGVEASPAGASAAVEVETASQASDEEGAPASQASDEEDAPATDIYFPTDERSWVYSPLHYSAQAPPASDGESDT

Molecules are shown by their SMILES. The source made the active and inactive calls. The calls are words filed in the database; no cut-off is given here.

On to `COc1cccc2cc(-c3nc([C@H]4CC[C@H](C(=O)O)CC4)n4ncnc(N)c34)[nH]c12` [OSI-027], for which the inhibition entry is “Active”.

The record behind these values is ChEMBL document CHEMBL5653605, “Reduced VEGF production, angiogenesis, and vascular regrowth contribute to the antitumor properties of dual mTORC1/mTORC2 inhibitors” (Cancer Res, 2011).
